Reference: patent publication US10112926B2 (priority 2014, dated 2018)
Structures can show the parent of a compound that is named as a salt.

Chains of the proteins cited; added tags and fusions are not shown. Lines headed by an entry give the natural chain unless they say otherwise; changes in a name come on top.
UniProt Q8NEB9, whole entry: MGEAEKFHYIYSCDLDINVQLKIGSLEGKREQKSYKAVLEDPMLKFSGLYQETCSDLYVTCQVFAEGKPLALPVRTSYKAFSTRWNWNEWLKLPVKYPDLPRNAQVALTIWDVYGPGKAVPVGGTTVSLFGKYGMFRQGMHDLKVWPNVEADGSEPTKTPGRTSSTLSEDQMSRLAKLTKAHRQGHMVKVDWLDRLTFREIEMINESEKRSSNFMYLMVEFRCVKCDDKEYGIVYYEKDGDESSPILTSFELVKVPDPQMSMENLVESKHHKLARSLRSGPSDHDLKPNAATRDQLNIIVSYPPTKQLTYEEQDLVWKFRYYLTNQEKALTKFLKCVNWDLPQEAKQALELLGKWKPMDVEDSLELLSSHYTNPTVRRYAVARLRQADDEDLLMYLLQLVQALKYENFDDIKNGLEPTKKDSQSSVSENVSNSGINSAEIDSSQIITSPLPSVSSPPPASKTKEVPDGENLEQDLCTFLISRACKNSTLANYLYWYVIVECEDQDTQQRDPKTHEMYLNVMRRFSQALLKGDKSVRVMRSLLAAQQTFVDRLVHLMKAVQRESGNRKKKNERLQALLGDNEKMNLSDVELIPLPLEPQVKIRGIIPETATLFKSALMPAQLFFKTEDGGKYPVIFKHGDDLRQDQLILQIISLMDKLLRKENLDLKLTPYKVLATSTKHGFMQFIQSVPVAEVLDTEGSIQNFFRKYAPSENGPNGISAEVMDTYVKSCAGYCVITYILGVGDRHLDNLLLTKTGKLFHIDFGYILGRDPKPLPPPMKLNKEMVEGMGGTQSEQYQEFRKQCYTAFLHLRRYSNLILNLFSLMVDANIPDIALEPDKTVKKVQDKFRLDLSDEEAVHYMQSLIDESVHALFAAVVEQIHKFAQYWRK
UniProt Q9UBF8: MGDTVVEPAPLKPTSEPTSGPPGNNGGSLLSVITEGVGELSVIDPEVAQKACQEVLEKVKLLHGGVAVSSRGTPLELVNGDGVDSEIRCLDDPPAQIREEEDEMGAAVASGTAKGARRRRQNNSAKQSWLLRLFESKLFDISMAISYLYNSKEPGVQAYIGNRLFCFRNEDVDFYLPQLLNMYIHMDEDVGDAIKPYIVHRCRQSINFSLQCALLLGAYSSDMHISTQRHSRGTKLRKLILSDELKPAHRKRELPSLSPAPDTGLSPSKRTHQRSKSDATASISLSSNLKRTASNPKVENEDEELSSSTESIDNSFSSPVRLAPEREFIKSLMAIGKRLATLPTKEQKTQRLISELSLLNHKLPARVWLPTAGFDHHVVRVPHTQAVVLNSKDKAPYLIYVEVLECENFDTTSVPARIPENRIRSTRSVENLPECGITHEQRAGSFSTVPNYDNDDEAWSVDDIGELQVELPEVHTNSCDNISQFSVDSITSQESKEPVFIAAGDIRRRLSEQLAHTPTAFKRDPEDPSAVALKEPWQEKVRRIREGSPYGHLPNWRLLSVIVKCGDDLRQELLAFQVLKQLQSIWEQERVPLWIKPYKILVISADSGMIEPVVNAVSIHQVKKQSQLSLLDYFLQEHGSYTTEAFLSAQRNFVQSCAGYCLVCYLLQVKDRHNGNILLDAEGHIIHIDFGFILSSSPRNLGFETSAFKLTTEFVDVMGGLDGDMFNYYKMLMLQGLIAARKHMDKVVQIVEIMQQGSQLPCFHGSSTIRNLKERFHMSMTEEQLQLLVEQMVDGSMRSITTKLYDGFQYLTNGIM

Biological target: Vps34 (Homo sapiens (Human), UniProt Q8NEB9)
Conditions: read-out: Assay C VPS34 IC50

Compared with `Cc1ncc(-c2cc(-c3cc(S(=O)(=O)NCCC(C)(C)O)ccc3C)cnc2N)s1` [Example 4, 3-(6-Amino-5-(2-methylthiazol-5-yl)pyridin-3-yl)-N-(3-hydroxy-3-methylbutyl)-4-methylbenzenesulfonamide], `COC1(C)CN(S(=O)(=O)c2ccc(C)c(-c3cnc(N)c(-c4cc(C)no4)c3)c2)C1` [Example 37.20, 5-(5-((3-Methoxy-3-methylazetidin-yl)sulfonyl)-2-methylphenyl)-3-(3-methylisoxazol-5-yl)pyridin-2-amine] is higher in IC50: 1950 nM for the first, > 10000 nM for the second. The first is the more potent here.

`Cc1cc(-c2cc(-c3cc(S(=O)(=O)N4CC5(CCOC5)C4)ccc3C)cnc2N)on1` [Example 19.1, 5-(5-(6-oxa-2-azaspiro[3.4]octan-2-ylsulfonyl)-2-methylphenyl)-3-(3-methylisoxazol-5-yl)pyridin-2-amine trifluoroacetic acid salt] and `Cc1cc(-c2cc(-c3cc(S(=O)(=O)N4CCNC(=O)C4)ccc3C)cnc2N)on1` [Example 19.17, 4-((3-(6-amino-5-(3-methylisoxazol-5-yl)pyridin-3-yl)-4-methylphenyl)sulfonyl) piperazin-2-one trifluoroacetic acid salt] cannot be ordered by IC50: > 10000 nM for the first, > 10000 nM for the second.

`Cc1cc(-c2cc(-c3cc(S(=O)(=O)N4CCCC4(C)C)ccc3C)cnc2N)on1` [Example 19.9, 5-(5-((2,2-dimethylpyrrolidin-1-yl)sulfonyl)-2-methylphenyl)-3-(3-methylisoxazol-5-yl)pyridin-2-amine trifluoroacetic acid salt] and `Cc1cc(-c2cc(-c3cc(S(=O)(=O)N4CCC[C@H]4CO)ccc3C)cnc2N)on1` [Example 19.15, (S)-(1-((3-(6-amino-5-(3-methylisoxazol-5-yl)pyridin-3-yl)-4-methylphenyl)sulfonyl)pyrrolidin-2-yl)methanol trifluoroacetic acid salt] cannot be ordered by IC50: > 10000 nM for the first, > 10000 nM for the second.

`COCC1CCN(S(=O)(=O)c2ccc(C)c(-c3cnc(N)c(-c4cc(C)no4)c3)c2)CC1` [Example 19.18, 5-(5-((4-(methoxymethyl)piperidin-1-yl)sulfonyl)-2-methylphenyl)-3-(3-methylisoxazol-5-yl)pyridin-2-amine trifluoroacetic acid salt] and `COC[C@@H]1COCCN1S(=O)(=O)c1ccc(C)c(-c2cnc(N)c(-c3cc(C)no3)c2)c1` [Example 19.20, (R)-5-(5-((3-(methoxymethyl)morpho-lino)sulfonyl)-2-methylphenyl)-3-(3-methylisoxazol-5-yl)pyridin-2-amine trifluoroacetic acid salt] cannot be ordered by IC50: > 10000 nM for the first, > 10000 nM for the second.

`COC1(C)CN(S(=O)(=O)c2ccc(C)c(-c3cnc(N)c(-c4nc(C)no4)c3)c2)C1` [Example 37.2, 5-(5-((3-Methoxy-3-methylazetidin-1-yl)sulfonyl)-2-methylphenyl)-3-(3-methyl-1,2,4-oxadiazol-5-yl)pyridin-2-amine] and `Cc1noc(-c2cc(-c3cc(S(=O)(=O)NC[C@H]4CCCO4)ccc3C)cnc2N)n1` [Example 37.5, (R)-3-(6-Amino-5-(3-methyl-1,2,4-oxadiazol-5-yl)pyridin-3-yl)-4-methyl-N-((tetrahydrofuran-2-yl)methyl)benzenesulfonamide] cannot be ordered by IC50: > 10000 nM for the first, > 10000 nM for the second.

In the case of `Cc1noc(-c2cc(-c3cc(S(=O)(=O)NC(CO)C4CCOC4)ccc3C)cnc2N)n1` (stereo not drawn) [Example 37.21, 3-(6-Amino-5-(3-methyl-1,2,4-oxadiazol-5-yl)pyridin-3-yl)-N-(2-hydroxy-1-(tetrahydrofuran-3-yl)ethyl)-4-methylbenzenesulfonamide], the IC50 is reported as > 10000 nM.

Biological target: PI 4-kinase beta (Homo sapiens (Human), UniProt Q9UBF8)
Conditions: read-out: Assay D PI4Kβ IC50

First: CCc1noc(-c2cc(-c3cc(S(=O)(=O)NCC(C)(C)O)ccc3C)cnc2N)n1 [Example 5.3, 3-(6-Amino-5-(3-ethyl-1,2,4-oxadiazol-5-yl)pyridin-3-yl)-N-(2-hydroxy-2-methylpropyl)-4-methylbenzenesulfon-amide hydrochloride]
Second: Cc1ncc(-c2cc(-c3cc(S(=O)(=O)NCC(C)(C)O)ccc3C)cnc2N)o1 [Example 6, 3-(6-Amino-5-(2-methyloxazol-5-yl)pyridin-3-yl)-N-(2-hydroxy-2-methylpropyl)-4-methylbenzenesulfonamide]
The IC50 of the first is 2.7-fold higher: 7500 nM for the first, 2730 nM for the second.

First: Cc1noc(-c2cc(-c3cc(S(=O)(=O)N[C@H]4C[C@@H](O)C4)ccc3C)cnc2N)n1 [Example 5.5a, 3-(6-Amino-5-(3-methyl-1,2,4-oxadiazol-5-yl)pyridin-3-yl)-N-((1s,3s)-3-hydroxycyclobutyl)-4-methylbenzenesulfonamide]
Second: Cc1ncc(-c2cc(-c3cc(S(=O)(=O)NCC4CC(O)C4)ccc3C)cnc2N)o1 (stereo not drawn) [Example 104.1, 3-(6-amino-5-(2-methyloxazol-5-yl)pyridin-3-yl)-N-((3-hydroxycyclobutyl)methyl)-4-methylbenzenesulfon-amide]
The IC50 of the first is 1.9-fold higher: 4600 nM for the first, 2400 nM for the second.

Going from `Cc1cc(-c2cc(-c3cc(S(=O)(=O)NCC4(C)COC4)ccc3C)cnc2N)on1` [Example 17, 3-[6-Amino-5-(3-methyl-isoxazol-5-yl)-pyridin-3-yl]-4-methyl-N-(3-methyl-oxetan-3-ylmethyl)-benzenesulfonamide hydrochloride] to `Cc1cc(-c2cc(-c3cc(S(=O)(=O)NCC4(CO)COC4)ccc3C)cnc2N)on1` [Example 50, 3-(6-Amino-5-(3-methylisoxazol-5-yl)pyridin-3-yl)-N-((3-(hydroxymethyl)oxetan-3-yl)methyl)-4-methylbenzenesulfonamide], the IC50 rises from 1500 nM to 4700 nM (3.1-fold).

First: Cc1cc(-c2cc(-c3cc(S(=O)(=O)N[C@H]4CC[C@H](N)CC4)ccc3C)cnc2N)on1 [Example 19.3, 3-(6-amino-5-(3-methylisoxazol-5-yl)pyridin-3-yl)-N-(trans-4-aminocyclohexyl)-4-methylbenzenesulfon-amide acetic acid salt]
Second: Cc1cc(-c2cc(-c3cc(S(=O)(=O)NCC4(O)CC4)ccc3C)cnc2N)on1 [Example 19.10, 3-(6-amino-5-(3-methylisoxazol-5-yl)pyridin-3-yl)-N-((1-hydroxycyclopropyl)methyl)-4-methylbenzenesulfon-amide trifluoroacetic acid salt]
The IC50 of the first is 3.1-fold lower: 1200 nM for the first, 3700 nM for the second. The first is the more potent here.

First: Cc1ccc(S(=O)(=O)NOCC(C)(C)O)cc1-c1cnc(N)c(-c2cnn(CC(F)(F)F)c2)c1 [Example 34, 3-(6-Amino-5-(1-(2,2,2-trifluoroethyl)-1H-pyrazol-4-yl)pyridin-3-yl)-N-(2-hydroxy-2-methylpropoxy)-4-methylbenzenesulfonamide hydrochloride]
Second: Cc1cnc(-c2cc(-c3cc(S(=O)(=O)NCC(C)(C)O)ccc3C)cnc2N)s1 [Example 90, 3-(6-Amino-5-(5-methylthiazol-2-yl)pyridin-3-yl)-N-(2-hydroxy-2-methylpropyl)-4-methylbenzenesulfonamide]
The IC50 of the first is 1.7-fold higher: 1300 nM for the first, 750 nM for the second.

`Cc1cc(-c2cc(-c3cc(S(=O)(=O)NCC4(CO)CCCCC4)ccc3C)cnc2N)on1` [Example 37.3, 3-(6-Amino-5-(3-methylisoxazol-5-yl)pyridin-3-yl)-N-((1-(hydroxymethyl)cyclohexyl)methyl)-4-methylbenzenesulfonamide] and `Cc1cc(-c2cc(-c3cc(S(=O)(=O)NCC4(CO)CCCC4)ccc3C)cnc2N)on1` [Example 37.23, 3-(6-Amino-5-(3-methylisoxazol-5-yl)pyridin-3-yl)-N-((1-(hydroxymethyl)cyclopentyl)methyl)-4-methylbenzenesulfonamide] are within 1.5-fold of each other in IC50: 1800 nM for the first, 2100 nM for the second.

`Cc1cc(-c2cc(-c3cc(S(=O)(=O)NCC4(O)CCCCC4)ccc3C)cnc2N)on1` [Example 37.9] and `Cc1cc(-c2cc(-c3cc(S(=O)(=O)NCC4(O)CCCC4)ccc3C)cnc2N)on1` [Example 53, 3-(6-Amino-5-(3-methylisoxazol-5-yl)pyridin-3-yl)-N-((1-hydroxycyclopentyl)methyl)-4-methylbenzenesulfonamide] are within 1.5-fold of each other in IC50: 1700 nM for the first, 2300 nM for the second.

Going from `Cc1cc(-c2cc(-c3cc(S(=O)(=O)NCCC4(O)CCCCC4)ccc3C)cnc2N)on1` [Example 37.30, 3-(6-Amino-5-(3-methylisoxazol-5-yl)pyridin-3-yl)-N-(2-(1-hydroxycyclohexyl)ethyl)-4-methylbenzenesulfonamide] to `Cc1cc(-c2cc(-c3cc(S(=O)(=O)NCC4(O)CCC4)ccc3C)cnc2N)on1` [Example 37.35, 3-(6-Amino-5-(3-methylisoxazol-5-yl)pyridin-3-yl)-N-((1-hydroxycyclobutyl)methyl)-4-methylbenzenesulfonamide], the IC50 rises from 1900 nM to 3200 nM (1.7-fold).

First: Cc1cc(-c2cc(-c3cc(S(=O)(=O)NCC4(O)CCOCC4)ccc3C)cnc2N)on1 [Example 54, 3-(6-Amino-5-(3-methylisoxazol-5-yl)pyridin-3-yl)-N-((4-hydroxytetrahydro-2H-pyran-4-yl)methyl)-4-methylbenzenesulfonamide]
Second: Cc1cc(-c2cc(-c3cc(S(=O)(=O)NCCO)ccc3C)cnc2N)on1 [Example 73, 3-(6-Amino-5-(3-methylisoxazol-5-yl)pyridin-3-yl)-N-(2-hydroxyethyl)-4-methylbenzenesulfonamide]
The IC50 of the first is 4.7-fold higher: 5200 nM for the first, 1100 nM for the second.

`Cc1ncc(-c2cc(-c3cc(S(=O)(=O)NCC4(CO)COC4)ccc3C)cnc2N)o1` [Example 67, 3-(6-Amino-5-(2-methyloxazol-5-yl)pyridin-3-yl)-N-((3-(hydroxymethyl)oxetan-3-yl)methyl)-4-methylbenzenesulfonamide] and `Cc1ncc(-c2cc(-c3cc(S(=O)(=O)NCC4(CO)COC4)ccc3C)cnc2N)s1` [Example 68, 3-(6-Amino-5-(2-methylthiazol-5-yl)pyridin-3-yl)-N-((3-(hydroxymethyl)oxetan-3-yl)methyl)-4-methylbenzenesulfonamide] are within 1.5-fold of each other in IC50: 2300 nM for the first, 2500 nM for the second.

`Cc1ncc(-c2cc(-c3cc(S(=O)(=O)NCCCO)ccc3C)cnc2N)o1` [Example 104.6, 3-(6-amino-5-(2-methyloxazol-5-yl)pyridin-3-yl)-N-(3-hydroxypropyl)-4-methylbenzenesulfon-amide] and `Cc1noc(-c2cc(-c3cc(S(=O)(=O)NCC(C)(C)O)c(C)cc3F)cnc2N)n1` [Example 113, 5-(6-amino-5-(3-methyl-1,2,4-oxadiazol-5-yl)pyridin-3-yl)-4-fluoro-N-(2-hydroxy-2-methylpropyl)-2-methylbenzenesulfonamide] are within 1.5-fold of each other in IC50: 2200 nM for the first, 2450 nM for the second.
